The values that follow come from ChEMBL document CHEMBL5727881, “Pyridone amides as modulators of sodium channels” (2020).

The assay can be described thus: Electrophysiology Assay: Patch clamp electrophysiology was used to assess the efficacy and selectivity of sodium channel blockers in dorsal root ganglion neurons. Rat neurons were isolated from the dorsal root ganglions and maintained in culture for 2 to 10 days in the presence of NGF (50 ng/ml) (culture media consisted of NeurobasalA supplemented with B27, glutamine and antibiotics). Small diameter neurons (nociceptors, 8-12 μm in diameter) were visually identified and probed with fine tip glass electrodes connected to an amplifier (Axon Instruments). The “voltage clamp” mode was used to assess the compound's IC50 holding the cells at −60 mV. In addition, the “current clamp” mode was employed to test the efficacy of the compounds in blocking action potential generation in response to current injections. The results of these experiments contributed to the definition of the efficacy profile of the compounds. (In general: Patch clamp records ionic current or voltage across a cell membrane.)

As to `Cc1cc(F)ccc1Oc1ccc(C(F)(F)F)cc1C(=O)Nc1cc[nH]c(=O)c1`, the IC50 was found to be 99 nM.

In general, IC50 refers to the midpoint of a concentration-inhibition curve.
